Source: PMC7830743 (Journal of medicinal chemistry, 2020)

Target: LDHA (Homo sapiens, UniProt P00338)
Experiment: SPR binding assay
Settings: read-out: off rate koff (×10^4)

SMILES | koff
NS(=O)(=O)c1ccc(Cc2c(-c3ccc(F)c(C#CC4CCCC4)c3)nn(-c3nc(C(=O)O)cs3)c2CC2CC2)cc1F [Compound 23, 2-(3-(3-(Cyclopentylethynyl)-4-fluorophenyl)-5-(cyclopropylmethyl)-4-(3-fluoro-4-sulfamoylbenzyl)-1H-pyrazol-1-yl)thiazole-4-carboxylic Acid] | < 1e-06 s⁻¹
NS(=O)(=O)c1ccc(Cc2c(-c3ccc(F)c(C#CCC4CCCC4)c3)nn(-c3nc(C(=O)O)cs3)c2CC2CC2)cc1F [Compound 38, 2-(3-(3-(3-Cyclopentylprop-1-yn-1-yl)-4-fluorophenyl)-5-(cyclo-propylmethyl)-4-(3-fluoro-4-sulfamoylbenzyl)-1H-pyrazol-1-yl)-thiazole-4-carboxylic Acid] | < 1e-06 s⁻¹
